For one experiment, the target named is RPS6KA6 (UniProt Q9UK32). Briefly: apparent dissociation constant pKd app (kinobead competition) (-log10(M)); higher = stronger binding.
The target of a further experiment is MST1R (UniProt Q04912). The description is as above.
For a further experiment, the target named is BRSK2 (UniProt Q8IWQ3). Described as above.
A further experiment deals with BMX (UniProt P51813). Described as above.
Another experiment addresses LATS2 (UniProt Q9NRM7). The experiment is described as above.
The next experiment has as its target MAP3K9 (UniProt P80192). The description is as above.
A further experiment deals with MAPK10 (UniProt P53779). Described as above.
Experiment [1] deals with ALDH1B1 (UniProt P30837). The experiment in a line: IC50 of competition for binding to immobilized-niraparib matrix. The settings on record: affinity matrix: immobilized niraparib (NHS-Sepharose); lysate: 1:1:1:1 mix of HEK293, K-562, placenta, HepG2 Princen.
The next experiment deals with T1, ALDH2 (UniProt P05091).
T1 sequence (whole entry): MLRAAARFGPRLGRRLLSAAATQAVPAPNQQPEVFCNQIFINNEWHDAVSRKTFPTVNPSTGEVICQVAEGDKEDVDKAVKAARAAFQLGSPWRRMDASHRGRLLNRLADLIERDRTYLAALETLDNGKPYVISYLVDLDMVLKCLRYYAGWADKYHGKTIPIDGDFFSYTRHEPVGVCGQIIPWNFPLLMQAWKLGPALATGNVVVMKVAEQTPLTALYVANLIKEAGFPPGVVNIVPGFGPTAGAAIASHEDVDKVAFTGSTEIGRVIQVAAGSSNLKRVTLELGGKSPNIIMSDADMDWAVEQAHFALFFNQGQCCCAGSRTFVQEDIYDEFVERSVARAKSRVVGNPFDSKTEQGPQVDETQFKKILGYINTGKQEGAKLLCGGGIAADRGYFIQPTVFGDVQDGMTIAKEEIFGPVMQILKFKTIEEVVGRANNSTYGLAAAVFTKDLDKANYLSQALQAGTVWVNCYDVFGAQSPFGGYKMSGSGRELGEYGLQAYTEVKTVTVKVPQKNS
The description is as above. The settings on record: affinity matrix: immobilized niraparib (NHS-Sepharose); lysate: 1:1:1:1 mix of HEK293, K-562, placenta, HepG2 Princen.

The chains behind the UniProt entries cited, without tags or fusion partners. Where a name states a change or a piece, a line headed by the entry shows the natural chain unless it says otherwise.
UniProt P53779: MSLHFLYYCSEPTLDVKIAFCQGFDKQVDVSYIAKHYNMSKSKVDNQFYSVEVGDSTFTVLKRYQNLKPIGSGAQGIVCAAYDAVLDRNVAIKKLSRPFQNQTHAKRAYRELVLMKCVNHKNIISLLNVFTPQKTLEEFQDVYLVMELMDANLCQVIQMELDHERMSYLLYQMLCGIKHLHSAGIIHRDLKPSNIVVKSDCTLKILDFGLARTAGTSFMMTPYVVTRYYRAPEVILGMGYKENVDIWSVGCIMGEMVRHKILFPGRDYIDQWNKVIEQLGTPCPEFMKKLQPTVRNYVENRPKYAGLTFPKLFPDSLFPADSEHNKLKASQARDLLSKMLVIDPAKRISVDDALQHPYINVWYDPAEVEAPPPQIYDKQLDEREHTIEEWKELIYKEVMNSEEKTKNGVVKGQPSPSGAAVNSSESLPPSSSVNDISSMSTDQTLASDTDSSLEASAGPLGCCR
UniProt O95271: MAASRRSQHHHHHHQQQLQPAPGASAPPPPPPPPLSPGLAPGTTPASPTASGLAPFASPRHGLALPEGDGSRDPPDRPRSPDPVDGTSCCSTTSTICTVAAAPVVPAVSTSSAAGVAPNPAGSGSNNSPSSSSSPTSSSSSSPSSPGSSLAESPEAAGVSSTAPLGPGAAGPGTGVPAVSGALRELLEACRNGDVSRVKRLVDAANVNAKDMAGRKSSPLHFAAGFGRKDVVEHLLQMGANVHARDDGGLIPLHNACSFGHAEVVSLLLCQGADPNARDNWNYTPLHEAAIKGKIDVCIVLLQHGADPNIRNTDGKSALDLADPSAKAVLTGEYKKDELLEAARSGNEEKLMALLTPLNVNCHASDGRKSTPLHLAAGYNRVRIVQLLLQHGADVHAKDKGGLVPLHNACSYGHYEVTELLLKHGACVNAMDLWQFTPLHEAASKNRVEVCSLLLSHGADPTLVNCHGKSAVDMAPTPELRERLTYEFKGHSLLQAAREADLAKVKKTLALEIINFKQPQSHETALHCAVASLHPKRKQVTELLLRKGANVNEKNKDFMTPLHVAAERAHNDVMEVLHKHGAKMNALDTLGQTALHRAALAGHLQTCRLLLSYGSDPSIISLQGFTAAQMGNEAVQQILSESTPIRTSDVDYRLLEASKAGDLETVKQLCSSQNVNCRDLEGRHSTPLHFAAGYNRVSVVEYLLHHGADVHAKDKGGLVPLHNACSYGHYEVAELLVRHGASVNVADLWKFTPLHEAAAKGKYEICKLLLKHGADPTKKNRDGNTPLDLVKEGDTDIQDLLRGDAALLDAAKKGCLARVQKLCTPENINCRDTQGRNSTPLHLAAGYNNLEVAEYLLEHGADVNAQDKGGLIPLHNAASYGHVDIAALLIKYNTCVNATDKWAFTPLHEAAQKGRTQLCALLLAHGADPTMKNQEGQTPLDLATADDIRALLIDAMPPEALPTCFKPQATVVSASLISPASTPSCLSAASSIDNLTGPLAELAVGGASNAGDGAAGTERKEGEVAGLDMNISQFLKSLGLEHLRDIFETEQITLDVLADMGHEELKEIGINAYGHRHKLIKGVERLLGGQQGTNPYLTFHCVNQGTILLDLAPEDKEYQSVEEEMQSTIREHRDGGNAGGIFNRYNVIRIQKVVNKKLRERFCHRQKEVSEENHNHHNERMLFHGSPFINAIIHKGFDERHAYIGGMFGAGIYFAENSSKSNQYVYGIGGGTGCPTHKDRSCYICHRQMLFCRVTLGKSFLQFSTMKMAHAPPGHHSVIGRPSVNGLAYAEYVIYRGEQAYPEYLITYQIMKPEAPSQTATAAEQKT
UniProt Q9NR21: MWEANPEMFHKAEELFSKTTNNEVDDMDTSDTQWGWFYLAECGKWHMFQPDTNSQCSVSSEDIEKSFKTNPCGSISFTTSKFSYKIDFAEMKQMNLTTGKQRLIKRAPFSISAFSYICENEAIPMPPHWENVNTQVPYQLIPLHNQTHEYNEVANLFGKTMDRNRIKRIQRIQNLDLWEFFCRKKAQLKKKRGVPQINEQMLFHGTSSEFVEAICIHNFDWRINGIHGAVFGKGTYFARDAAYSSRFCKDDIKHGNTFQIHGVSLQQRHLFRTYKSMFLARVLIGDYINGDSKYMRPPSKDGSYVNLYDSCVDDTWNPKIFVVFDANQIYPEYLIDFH
UniProt Q460N5, whole entry: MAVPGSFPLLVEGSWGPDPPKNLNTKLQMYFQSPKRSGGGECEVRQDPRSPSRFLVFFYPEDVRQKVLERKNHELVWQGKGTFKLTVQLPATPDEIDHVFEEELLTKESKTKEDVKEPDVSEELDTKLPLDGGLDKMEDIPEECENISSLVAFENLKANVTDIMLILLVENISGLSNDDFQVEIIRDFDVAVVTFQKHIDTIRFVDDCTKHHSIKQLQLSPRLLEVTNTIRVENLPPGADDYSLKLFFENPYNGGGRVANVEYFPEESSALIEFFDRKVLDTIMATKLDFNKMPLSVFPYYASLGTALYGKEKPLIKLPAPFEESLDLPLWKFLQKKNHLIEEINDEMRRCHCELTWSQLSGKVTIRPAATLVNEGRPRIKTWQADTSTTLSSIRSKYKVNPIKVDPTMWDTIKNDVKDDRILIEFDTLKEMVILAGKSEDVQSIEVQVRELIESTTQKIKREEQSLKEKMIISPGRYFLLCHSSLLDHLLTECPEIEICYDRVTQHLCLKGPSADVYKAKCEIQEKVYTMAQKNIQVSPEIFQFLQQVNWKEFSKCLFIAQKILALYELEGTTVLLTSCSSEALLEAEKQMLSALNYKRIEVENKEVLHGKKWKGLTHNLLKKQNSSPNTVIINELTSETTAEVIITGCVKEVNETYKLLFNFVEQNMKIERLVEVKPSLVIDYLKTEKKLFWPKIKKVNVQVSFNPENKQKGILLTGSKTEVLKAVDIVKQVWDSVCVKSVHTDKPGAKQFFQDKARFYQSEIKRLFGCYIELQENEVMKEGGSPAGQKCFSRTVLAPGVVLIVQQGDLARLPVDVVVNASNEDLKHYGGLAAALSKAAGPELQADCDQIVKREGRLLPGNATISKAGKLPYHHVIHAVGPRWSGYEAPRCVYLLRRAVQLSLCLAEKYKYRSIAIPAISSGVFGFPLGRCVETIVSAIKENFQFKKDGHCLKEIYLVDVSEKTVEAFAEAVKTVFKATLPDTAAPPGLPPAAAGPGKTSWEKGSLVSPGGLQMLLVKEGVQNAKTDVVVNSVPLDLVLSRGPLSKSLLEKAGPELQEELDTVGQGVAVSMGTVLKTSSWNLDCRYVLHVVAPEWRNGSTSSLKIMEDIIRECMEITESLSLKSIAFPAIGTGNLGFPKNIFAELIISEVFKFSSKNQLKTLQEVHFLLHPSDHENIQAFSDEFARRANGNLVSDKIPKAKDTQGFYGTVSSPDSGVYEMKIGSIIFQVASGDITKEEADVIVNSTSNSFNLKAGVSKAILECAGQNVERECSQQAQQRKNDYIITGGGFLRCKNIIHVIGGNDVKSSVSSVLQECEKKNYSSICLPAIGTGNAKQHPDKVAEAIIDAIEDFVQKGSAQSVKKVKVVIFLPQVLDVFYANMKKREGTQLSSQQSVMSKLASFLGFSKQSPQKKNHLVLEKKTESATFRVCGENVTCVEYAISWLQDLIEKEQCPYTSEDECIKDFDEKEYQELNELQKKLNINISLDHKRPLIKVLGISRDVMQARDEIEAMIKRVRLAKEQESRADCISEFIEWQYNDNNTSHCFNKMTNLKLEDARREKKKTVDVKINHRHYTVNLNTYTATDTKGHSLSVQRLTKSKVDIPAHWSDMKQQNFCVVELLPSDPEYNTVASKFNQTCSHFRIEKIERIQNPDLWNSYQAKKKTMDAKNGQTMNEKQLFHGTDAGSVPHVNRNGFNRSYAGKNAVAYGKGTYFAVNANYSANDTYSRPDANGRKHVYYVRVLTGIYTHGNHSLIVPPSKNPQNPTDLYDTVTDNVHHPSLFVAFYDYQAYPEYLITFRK
UniProt Q8N5Y8: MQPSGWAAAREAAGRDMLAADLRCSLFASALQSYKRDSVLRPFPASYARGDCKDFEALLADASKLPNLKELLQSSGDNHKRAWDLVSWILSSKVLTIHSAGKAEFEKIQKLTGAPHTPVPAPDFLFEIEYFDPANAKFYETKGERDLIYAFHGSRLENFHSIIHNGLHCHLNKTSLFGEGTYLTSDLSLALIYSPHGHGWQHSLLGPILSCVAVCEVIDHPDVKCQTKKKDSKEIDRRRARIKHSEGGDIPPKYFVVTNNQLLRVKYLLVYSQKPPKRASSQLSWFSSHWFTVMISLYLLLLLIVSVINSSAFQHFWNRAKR
UniProt Q9UKK3: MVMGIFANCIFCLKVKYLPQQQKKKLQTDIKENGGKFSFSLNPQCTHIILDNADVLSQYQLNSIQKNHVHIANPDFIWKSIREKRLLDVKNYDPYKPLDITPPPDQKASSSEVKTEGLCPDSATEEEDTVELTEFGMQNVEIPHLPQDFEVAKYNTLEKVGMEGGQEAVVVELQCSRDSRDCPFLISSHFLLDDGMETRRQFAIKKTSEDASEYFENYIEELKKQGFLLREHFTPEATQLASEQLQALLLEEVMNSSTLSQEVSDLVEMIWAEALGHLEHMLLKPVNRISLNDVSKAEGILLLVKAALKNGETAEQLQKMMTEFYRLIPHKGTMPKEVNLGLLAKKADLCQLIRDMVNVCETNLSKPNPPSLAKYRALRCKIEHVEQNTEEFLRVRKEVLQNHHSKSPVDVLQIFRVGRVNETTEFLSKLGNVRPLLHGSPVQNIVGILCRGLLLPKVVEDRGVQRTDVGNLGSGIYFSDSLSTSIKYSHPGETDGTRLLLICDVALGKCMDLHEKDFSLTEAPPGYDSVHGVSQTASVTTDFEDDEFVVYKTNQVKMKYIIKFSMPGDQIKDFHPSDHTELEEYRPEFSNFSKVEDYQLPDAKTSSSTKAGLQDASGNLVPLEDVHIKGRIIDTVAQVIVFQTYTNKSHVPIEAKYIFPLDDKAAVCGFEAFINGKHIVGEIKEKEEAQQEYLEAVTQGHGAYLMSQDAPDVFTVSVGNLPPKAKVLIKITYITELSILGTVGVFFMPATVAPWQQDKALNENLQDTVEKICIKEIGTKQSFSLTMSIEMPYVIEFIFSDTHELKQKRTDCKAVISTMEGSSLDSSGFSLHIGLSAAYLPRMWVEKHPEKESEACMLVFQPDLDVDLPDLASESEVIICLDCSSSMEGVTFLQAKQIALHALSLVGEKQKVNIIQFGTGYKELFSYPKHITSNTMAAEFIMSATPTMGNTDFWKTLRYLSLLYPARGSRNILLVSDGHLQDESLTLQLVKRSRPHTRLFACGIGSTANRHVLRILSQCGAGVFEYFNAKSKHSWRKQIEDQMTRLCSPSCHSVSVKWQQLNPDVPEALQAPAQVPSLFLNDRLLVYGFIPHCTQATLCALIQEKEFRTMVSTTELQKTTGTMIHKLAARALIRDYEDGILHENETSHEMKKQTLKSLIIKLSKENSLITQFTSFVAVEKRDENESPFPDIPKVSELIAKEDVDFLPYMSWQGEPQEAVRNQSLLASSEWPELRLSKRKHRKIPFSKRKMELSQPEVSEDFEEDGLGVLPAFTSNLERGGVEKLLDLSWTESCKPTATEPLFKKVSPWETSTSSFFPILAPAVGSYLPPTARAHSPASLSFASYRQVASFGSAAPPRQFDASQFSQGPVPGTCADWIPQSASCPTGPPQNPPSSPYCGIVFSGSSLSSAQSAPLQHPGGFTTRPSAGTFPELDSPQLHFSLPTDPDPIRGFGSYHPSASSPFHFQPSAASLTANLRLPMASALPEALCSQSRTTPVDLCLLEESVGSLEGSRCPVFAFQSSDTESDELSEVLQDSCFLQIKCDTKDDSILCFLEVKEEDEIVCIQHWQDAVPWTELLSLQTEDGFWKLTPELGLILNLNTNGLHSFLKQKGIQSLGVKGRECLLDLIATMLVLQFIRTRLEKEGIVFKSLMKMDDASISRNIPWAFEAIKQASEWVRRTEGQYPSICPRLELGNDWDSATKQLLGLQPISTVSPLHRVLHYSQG
UniProt Q96D53: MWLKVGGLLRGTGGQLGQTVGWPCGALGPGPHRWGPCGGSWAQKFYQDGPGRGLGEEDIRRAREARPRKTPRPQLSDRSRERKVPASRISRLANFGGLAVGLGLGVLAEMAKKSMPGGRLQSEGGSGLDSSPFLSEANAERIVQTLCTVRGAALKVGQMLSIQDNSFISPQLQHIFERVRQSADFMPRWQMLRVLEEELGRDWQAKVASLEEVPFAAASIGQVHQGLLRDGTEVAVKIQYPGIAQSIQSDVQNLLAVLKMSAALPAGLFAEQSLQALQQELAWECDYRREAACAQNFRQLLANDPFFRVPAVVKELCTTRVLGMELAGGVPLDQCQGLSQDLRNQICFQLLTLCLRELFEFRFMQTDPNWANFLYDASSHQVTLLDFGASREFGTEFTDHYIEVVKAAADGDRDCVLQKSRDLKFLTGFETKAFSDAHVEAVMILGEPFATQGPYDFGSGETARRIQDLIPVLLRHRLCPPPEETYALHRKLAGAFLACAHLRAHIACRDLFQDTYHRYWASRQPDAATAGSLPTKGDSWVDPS

The target of experiment [2] is TNKS (UniProt O95271). The description is as above. Conditions: affinity matrix: immobilized niraparib (NHS-Sepharose); lysate: 1:1:1:1 mix of HEK293, K-562, placenta, HepG2 Princen.
For experiment [3], the target named is UniProt Q9NR21. Described as above. The settings on record: affinity matrix: immobilized niraparib (NHS-Sepharose); lysate: 1:1:1:1 mix of HEK293, K-562, placenta, HepG2 Princen.
The target of the next experiment is UniProt O75521. The experiment is described as above. Conditions: affinity matrix: immobilized niraparib (NHS-Sepharose); lysate: 1:1:1:1 mix of HEK293, K-562, placenta, HepG2 Princen.
The target of the next experiment is PARP10 (UniProt Q53GL7). The experiment in a line: IC50 of competition for binding to PARP-centric bead matrix. Conditions: affinity matrix: PARP family-centric bead mix; lysate: MDA-MB-231.
The next experiment addresses PARP14 (UniProt Q460N5). The experiment is described as above. Conditions: affinity matrix: PARP family-centric bead mix; lysate: MDA-MB-231.
For another experiment, the target named is PARP16 (UniProt Q8N5Y8). The description is as above. Conditions: affinity matrix: PARP family-centric bead mix; lysate: MDA-MB-231.
Experiment [4] addresses TNKS (UniProt O95271). The experiment is described as above. The settings on record: affinity matrix: PARP family-centric bead mix; lysate: MDA-MB-231.
The next experiment deals with PARP4 (UniProt Q9UKK3). The description is as above. The settings on record: affinity matrix: PARP family-centric bead mix; lysate: MDA-MB-231.
In experiment [5] the target is UniProt Q9NR21. Described as above. The settings on record: affinity matrix: PARP family-centric bead mix; lysate: MDA-MB-231.
The target of a further experiment is DYRK1B (UniProt Q9Y463). Briefly: apparent dissociation constant pKd app (kinobead competition) (-log10(M)); higher = stronger binding.
The next experiment addresses STK11 (UniProt Q15831). The description is as above.
Another experiment deals with ARAF (UniProt P10398). The description is as above.
For another experiment, the target named is UniProt Q9H2K2. The experiment in a line: IC50 of competition for binding to immobilized-niraparib matrix. Conditions: affinity matrix: immobilized niraparib (NHS-Sepharose); lysate: 1:1:1:1 mix of HEK293, K-562, placenta, HepG2 Princen.
The target of the next experiment is PRKACA (UniProt P17612). Briefly: apparent dissociation constant pKd app (kinobead competition) (-log10(M)); higher = stronger binding.
The next experiment has as its target SGK2 (UniProt Q9HBY8). The experiment is described as above.
The next experiment addresses ADCK4 (UniProt Q96D53). The description is as above.
In the next experiment the target is PHKG2 (UniProt P15735). The description is as above.
For a further experiment, the target named is KIT (UniProt P10721). Described as above.
A further experiment deals with EIF2AK1 (UniProt Q9BQI3). Described as above.
The target in a further experiment is BMPR1B (UniProt O00238). The experiment is described as above.
Experiment [6] has as its target ALDH1B1 (UniProt P30837). Briefly: IC50 of competition for binding to PARP-centric bead matrix. The settings on record: affinity matrix: PARP family-centric bead mix; lysate: MDA-MB-231.
For a further experiment, the target named is UniProt O14965. The experiment is described as above. Conditions: affinity matrix: PARP family-centric bead mix; lysate: MDA-MB-231.
The next experiment has as its target UniProt Q8NI60. The experiment is described as above. The settings on record: affinity matrix: PARP family-centric bead mix; lysate: MDA-MB-231.
For the next experiment, the target named is JAK1 (UniProt P23458). The description is as above. The settings on record: affinity matrix: PARP family-centric bead mix; lysate: MDA-MB-231.

By IC50 is commonly meant the concentration that gives 50% inhibition.

SMILES strings stand for the structures.

For `NC(=O)c1cccc2cn(-c3ccc([C@@H]4CCCNC4)cc3)nc12` [Niraparib], the “apparent dissociation constant pKd app (-log10)” value at RPS6KA6 is below 4.7; on MST1R, below 4.6; at BRSK2, below 4.7; on BMX, below 4.7; at LATS2, below 4.5; at MAP3K9, below 4.8. In addition, at MAPK10, the “apparent dissociation constant pKd app (-log10)” value was below 4.8. Besides, the IC50 at ALDH1B1 [1] is 1 µM; on ALDH2 it was 6.18 µM; on TNKS [2], 8.5 µM; on UniProt Q9NR21 [3], above 30 µM; at UniProt O75521, 3.6 µM; at PARP10 it was 10 µM. The IC50 at PARP14 was above 30 µM; at PARP16 it was above 30 µM; on TNKS [4], above 30 µM; on PARP4, 0.384 µM; at UniProt Q9NR21 [5], above 30 µM.

Regarding `Cn1ncnc1[C@H]1c2n[nH]c(=O)c3cc(F)cc(c23)N[C@@H]1c1ccc(F)cc1` [Talazoparib], the “apparent dissociation constant pKd app (-log10)” value on DYRK1B was below 4.6; on STK11, below 4.5; at ARAF it was below 4.5. At UniProt Q9H2K2, this compound displayed an IC50 of 0.18 µM.

Turning to `O=C(c1cc(Cc2n[nH]c(=O)c3ccccc23)ccc1F)N1CCN(C(=O)C2CC2)CC1` [Olaparib], the “apparent dissociation constant pKd app (-log10)” value on PRKACA, on SGK2, on ADCK4, at PHKG2, at KIT and at EIF2AK1 was below 4.5 each time. For the same compound, at BMPR1B, the “apparent dissociation constant pKd app (-log10)” value is below 4.7. The concentration for half-maximal inhibition (IC50) at ALDH1B1 [6], on UniProt O14965, at UniProt Q8NI60 and on JAK1 was above 30 µM in each case.

The record behind these values is the supplement of paper PMC11403291.
